Results from US9464084B2, “P2X7 modulators” (Janssen Pharmaceutica NV, priority 2013, dated 2016).

Chains of the proteins cited; added tags and fusions are not shown. Lines headed by an entry give the natural chain unless they say otherwise; changes in a name come on top.
UniProt Q99572: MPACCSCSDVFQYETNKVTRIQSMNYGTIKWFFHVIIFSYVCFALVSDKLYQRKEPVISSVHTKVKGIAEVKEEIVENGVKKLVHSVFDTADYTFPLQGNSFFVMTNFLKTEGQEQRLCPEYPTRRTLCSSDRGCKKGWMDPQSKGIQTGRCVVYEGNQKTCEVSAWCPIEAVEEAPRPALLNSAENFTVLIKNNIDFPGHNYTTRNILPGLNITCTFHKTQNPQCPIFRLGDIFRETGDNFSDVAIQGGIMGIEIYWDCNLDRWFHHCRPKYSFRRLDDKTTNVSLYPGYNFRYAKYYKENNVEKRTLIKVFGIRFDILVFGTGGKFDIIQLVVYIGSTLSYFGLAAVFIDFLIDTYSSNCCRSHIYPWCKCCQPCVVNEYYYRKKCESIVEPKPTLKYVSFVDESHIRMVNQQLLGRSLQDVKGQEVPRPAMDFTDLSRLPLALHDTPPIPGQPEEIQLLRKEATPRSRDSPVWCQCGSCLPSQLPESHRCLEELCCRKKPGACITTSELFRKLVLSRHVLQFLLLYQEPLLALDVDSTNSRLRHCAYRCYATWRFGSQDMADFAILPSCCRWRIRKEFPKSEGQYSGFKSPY
UniProt Q64663: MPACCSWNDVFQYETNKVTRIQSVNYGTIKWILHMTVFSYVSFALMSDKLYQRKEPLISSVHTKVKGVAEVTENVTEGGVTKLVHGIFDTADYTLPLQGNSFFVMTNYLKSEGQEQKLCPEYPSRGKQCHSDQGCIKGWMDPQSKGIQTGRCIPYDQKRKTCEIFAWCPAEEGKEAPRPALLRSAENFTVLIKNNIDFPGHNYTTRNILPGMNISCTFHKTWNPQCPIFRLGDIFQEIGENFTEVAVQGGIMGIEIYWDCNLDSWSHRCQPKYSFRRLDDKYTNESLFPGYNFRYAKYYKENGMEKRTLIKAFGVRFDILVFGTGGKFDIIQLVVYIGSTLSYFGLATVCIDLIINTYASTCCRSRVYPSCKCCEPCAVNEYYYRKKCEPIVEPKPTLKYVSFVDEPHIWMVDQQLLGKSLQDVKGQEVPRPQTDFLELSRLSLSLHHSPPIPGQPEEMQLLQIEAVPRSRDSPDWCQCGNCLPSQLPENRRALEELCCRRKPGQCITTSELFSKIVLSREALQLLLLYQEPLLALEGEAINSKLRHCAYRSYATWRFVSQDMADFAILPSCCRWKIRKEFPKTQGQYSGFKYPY

What was measured:
P2X7 [1] = molecular target: T1, P2X7 (Homo sapiens (Human), UniProt Q99572); test: Ca2+ flux (FLIPR) in 1321N1 cells expressing recombinant human P2X7 channel; assay type: cell-based; conditions: 250 μM BzATP;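 note: Calcium-4 dye-loaded cells exposed to compound for 30 min before agonist addition, fluorescence change read 180 s after agonist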
P2X7 [2] = molecular target: T1, P2X7; test: Radioligand binding, tritiated A-804598, human P2X7-1321N1 cell membranes; conditions: 1 hour at 4° C.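 Note: ki obtained from the binding IC50 after correction for tracer concentration and tracer affinity.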
rat P2X7 [3] = molecular target: T2, rat P2X7 (Rattus norvegicus (Rat), UniProt Q64663); test: Radioligand binding, tritiated A-804598, rat P2X7-1321N1 cell membranes; conditions: 1 hour at 4° C.
rat P2X7 [4] = molecular target: T2, rat P2X7; test: Ca2+ flux (FLIPR) in 1321N1 cells expressing recombinant rat P2X7 channel; assay type: cell-based; conditions: 250 μM BzATP;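 note: Calcium-4 dye fluorescence change read 180 s after agonist addition, following 30 min cell preincubation with test compound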

Row | Structure (SMILES) | IC50 (P2X7 [1]) [nM] | Ki (P2X7 [2]) [nM] | Ki (rat P2X7 [3]) [nM] | IC50 (rat P2X7 [4]) [nM]
1 | COCCn1ccc(-n2nnc3c2CCN(C(=O)c2cccc(C(F)(F)F)c2Cl)[C@H]3C)n1 (single isomer, unassigned) [Example 249, (S*)-(2-Chloro-3-(trifluoromethyl)phenyl)(1-(1-(2-methoxyethyl)-1H-pyrazol-3-yl)-4-methyl-6,7-dihydro-1H-[1,2,3]triazolo[4,5-c]pyridin-5(4H)-yl)methanone] | 12.7 | 20 | 2.2 | 3.8
2 | CC1c2nnn(-c3cnccn3)c2CCN1C(=O)c1cccc(C(F)(F)F)c1Cl (centres unmarked) [Example 73, 5-{[2-Chloro-3-(trifluoromethyl)phenyl]carbonyl}-4-methyl-1-pyrazin-2-yl-4,5,6,7-tetrahydro-1H-[1,2,3]triazolo[4,5-c]pyridine] | 14.5 | 251 | 19.1 | 40.8
